Laboratory results reported in PubChem BioAssay AID540277 (National Center for Advancing Translational Sciences (NCATS), 2011).
The list shows a part of the results. Records with an inconclusive call do not appear. Some salts and complexes are drawn in separate pieces, as the source files them; their charges need not balance. Activity calls are given as the source filed them. No stated cut-off is given here; in the data, active means potentiation above about 80%; inconclusive means between about 30% and that limit; inactive means weaker than that.

The chains behind the UniProt entries cited, without tags or fusion partners.
UniProt Q8NER1, whole entry: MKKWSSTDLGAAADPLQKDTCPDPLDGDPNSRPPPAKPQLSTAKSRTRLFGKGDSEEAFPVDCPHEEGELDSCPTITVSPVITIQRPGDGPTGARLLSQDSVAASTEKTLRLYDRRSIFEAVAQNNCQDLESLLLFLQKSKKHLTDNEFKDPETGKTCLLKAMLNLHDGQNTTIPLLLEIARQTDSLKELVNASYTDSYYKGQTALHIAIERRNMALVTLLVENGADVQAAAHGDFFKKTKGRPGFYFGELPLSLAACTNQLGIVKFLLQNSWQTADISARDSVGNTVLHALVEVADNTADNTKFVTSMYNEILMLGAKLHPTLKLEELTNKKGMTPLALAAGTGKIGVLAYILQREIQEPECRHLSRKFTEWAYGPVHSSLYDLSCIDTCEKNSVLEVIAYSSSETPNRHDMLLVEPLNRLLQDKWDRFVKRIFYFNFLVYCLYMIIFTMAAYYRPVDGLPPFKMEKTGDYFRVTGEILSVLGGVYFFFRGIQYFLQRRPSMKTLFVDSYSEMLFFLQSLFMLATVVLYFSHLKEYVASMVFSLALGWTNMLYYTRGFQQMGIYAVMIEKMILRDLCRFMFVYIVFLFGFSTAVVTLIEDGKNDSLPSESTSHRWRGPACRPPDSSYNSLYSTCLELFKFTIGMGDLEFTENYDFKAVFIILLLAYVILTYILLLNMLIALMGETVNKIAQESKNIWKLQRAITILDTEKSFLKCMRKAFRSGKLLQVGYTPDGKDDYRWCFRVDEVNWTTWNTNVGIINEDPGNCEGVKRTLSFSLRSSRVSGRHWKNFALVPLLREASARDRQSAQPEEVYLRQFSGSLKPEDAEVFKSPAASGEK

Target: Transient receptor potential cation channel subfamily V member 1 (Homo sapiens) (UniProt Q8NER1)
Assay: HTS Assay for Compounds that Act as Potentiators of the Vanilloid Receptor 1; on potentiation: 0% is about no effect
Conditions: TRPV1-expressing cells, Fluo-8 calcium influx, capsaicin EC20 potentiation; at 8.33 µM, hits give high values
From the text: The transient receptor potential ion channel, family V, number 1, (TRPV1) is one of the most important molecular transducers of painful stimuli and a potential target for analgesic drug development. Although recent clinical trials with orthosteric antagonists have not produced a successful drug because of a hyperthermia side effect and their tendency to block thermal noxious pain, this ion channel is undeniably well placed in the pain pathway, and the idea of blocking pain signals before they enter the CNS is an excellent concept and of proven efficacy when TRPV1 agonists are used. We propose a new approach involving allosteric modulation to impose an activity-dependent constraint within the context of inflammation and tissue damage that would alter the responsiveness of the channel in a way that an orthosteric vanilloid antagonist cannot achieve. We believe that the allosteric modulator approach has not been explored for this target. The main goal of this proposal is to identify additional, new, potent allosteric modulators of TRPV1 that can be used to investigate TRPV1 function. Our recent report provides evidence of proof of concept, but the compounds are just at the edge of utility in terms of potency. […] The question of whether they can be used as analgesic agents is complex, but if suitable compounds are identified then testing for analgesic properties will be conducted. NIH Chemical Genomics Center [NCGC] NIH Molecular Libraries Probe Centers Network [MLPCN] MLPCN Grant: MH089480-1A1 Assay Submitter (PI): Michael Iadarola, National Institute of Dental and Cranofacial Research
Upon TRPV1 activation in TRPV1 cells, the channel opens and extracellular cations flow through the channel into the cytosol. A calcium binding dye (Fluo-8) becomes fluorescent when bound to calcium. This dye is pre-loaded into cells and is used as a marker for calcium influx. The amount of accumulated calcium is precisely quantified using the FDSS kinetic reader and the calcium dye. For the HTS assay, freshly prepared cells are plated at a density of 2000/well in 3 ul medium in 1536-well plates and cultured overnight at 35.5C. Cells will be loaded with 1 ul of the homogeneous calcium dye (ABD Bioquest) at room temperature for 40 to 90 minutes. Plates will be loaded into the FDSS kinetic reader and a 1 sec / cycle for 10 second baseline signal will be measured. Compound library will then be added with a pintool at 23 nl and measured kinetically for 3 minutes. This portion of the read is considered the agonist portion of the screen. Following the 3 minutes of incubation, an on board pipettor will deliver 1 ul of capsaicin for a final concentration equal to the EC20. Signal will be measured kinetically for an additional 2 minutes. This portion of the read is considered the allosteric enhancer portion of the screen. The FDSS reader has a standard filter set capable of measuring calcium bound Fluo-8 (ex=480 and em=520 nm).

SMILES	potentiation
Cc1ccc(OCC(C)C)c(CN(CCCl)CCCl)c1	inactive: -11.5%
CCOC(=O)N1CCC(Nc2cccc(C)c2)CC1	inactive: -8.37%
COc1cc(C(=O)NCC2(N(C)C)CCCCC2)ccc1OC(F)F	inactive: 3.53%
CCOC(=O)N1CCC(Nc2ccc(F)cc2)CC1	inactive: -19.3%
COc1ccc(NC2CCN(CCc3ccccc3)CC2)c(OC)c1	inactive: 7.7%
CCCCOc1ccc(C(=O)NCC2(N3CCOCC3)CCCCC2)cc1	inactive: -13.4%
O=C(NCC1(N2CCCCC2)CCCCC1)c1ccc(F)cc1	inactive: -13.5%
CCOc1ccc(C)cc1CN(CCCl)CCCl	inactive: -8.39%
COc1ccc(Cl)cc1C(=O)NCC1(N2CCOCC2)CCCCC1	inactive: -16.7%
O=C(NCC1(N2CCCCC2)CCCCC1)c1ccc(Cl)s1	inactive: -11.7%
N#CC1(Nc2ccccc2)CCN(Cc2ccccc2)CC1	inactive: -8.24%
O=C(OC1CN2CCC1CC2)C1c2ccccc2Oc2ccccc21 (stereo not given)	inactive: -7.51%
CCOC(=O)N1CCC(Nc2ccc(OC)cc2)CC1	inactive: -4.16%
Cc1cc(C)cc(N(C(=O)c2ccccc2)C2CCN(C(=O)OC(C)(C)C)CC2)c1	inactive: -21.9%
O=C(NCC1(N2CCCCC2)CCCCC1)c1ccc(Cl)nc1	inactive: -6.41%
O=C(NCC1(N2CCOCC2)CCCCC1)c1cc2ccccc2o1	inactive: 17.2%
CSc1ccccc1C(=O)NCC1(N2CCCCC2)CCCCC1	inactive: -6.98%
CC(C)(C)OC(=O)N1CCC(N(C(=O)c2ccccc2)c2ccc(F)cc2)CC1	inactive: -25.7%
COc1ccc(C(=O)NCC2(N3CCCCC3)CCCCC2)c(OC)c1OC	inactive: 1.84%
COc1ccc(C(=O)NCC2(N3CCCCC3)CCCCC2)cc1	inactive: -6.7%
O=C(NCC1(N2CCCCC2)CCCCC1)c1cccs1	inactive: -9.85%
O=C(NCC1(N2CCCCC2)CCCCC1)c1ccc(=O)[nH]c1	inactive: -4.14%
CCCOc1ccc(C(=O)NCC2(N(C)C)CCCCC2)cc1OC	inactive: -1.35%
COc1ccc2c(c1O)-c1c(O)c(OC)cc3c1[C@H](C2)[N+](C)(C)CC3.O=[N+]([O-])c1cc([N+](=O)[O-])c([O-])c([N+](=O)[O-])c1[O-]	inactive: -13.3%

SMILES	potentiation
O=C(NCC1(N2CCCCC2)CCCCC1)c1cncc(Br)c1	inactive: -5.66%
COc1cc(OC)c(C(=O)NCC2(N(C)C)CCCCC2)cc1OC	inactive: 1.68%
CC(C)c1ccc(NC2CCN(C(=O)OC(C)(C)C)CC2)cc1	inactive: -32.6%
CN(C)c1cccc(C(=O)NCC2(N3CCCCC3)CCCCC2)c1	inactive: -0.888%
O=[N+]([O-])c1cc([N+](=O)[O-])c(OC2CCCCC2O)c([N+](=O)[O-])c1 (stereo not given)	inactive: 0.976%
COc1ccc(CN(CCCl)CCCl)cc1Cl	inactive: 8.86%
O=C(NCC1(N2CCOCC2)CCCCC1)c1cc(=O)[nH]c2ccccc12	inactive: 3.59%
COc1cc(C(=O)NCC2(N3CCCCC3)CCCCC2)ccc1OC(F)F	inactive: 7.41%
CC(C)c1ccc(C(=O)NCC2(N3CCOCC3)CCCCC2)cc1	inactive: 6.58%
COc1ccc(NC2CCN(C(=O)OC(C)(C)C)CC2)cc1	inactive: -3.76%
CN1CCN(CCOC(=O)C(O)(c2ccccc2)c2ccccc2)CC1	inactive: -5.29%
O=[N+]([O-])c1cc([N+](=O)[O-])c(NCC2CCS(=O)(=O)C2)c([N+](=O)[O-])c1 (stereo not given)	inactive: 13.5%
O=C(NCC1(N2CCCCC2)CCCCC1)c1cccc(C(F)(F)F)c1	inactive: -4.17%
N#CC1(Nc2ccccc2)CCN(CCc2ccccc2)CC1	inactive: 4.8%
CCN1CCC(Nc2ccc(Cl)cc2)CC1	inactive: -7.2%
O=C(NCC1(N2CCCCC2)CCCCC1)c1cccc([N+](=O)[O-])c1	inactive: 3.83%
CSc1ccc(C(=O)NCC2(N3CCOCC3)CCCCC2)cc1	inactive: -6.56%
O=C(NCC1(N2CCCCC2)CCCCC1)c1ccc(OC(F)F)cc1	inactive: 3.68%
CN(C)C1(CNC(=O)c2cccc(C#N)c2)CCCCC1	inactive: -24.9%
CCCN1CCC(Nc2cc(OC)cc(OC)c2)CC1	inactive: 3.35%
c1ccc(CN2CCC(Nc3ccccc3)CC2)cc1	inactive: 10%
CCOC(=O)C(CC)C1=NC(C)(C)Cc2ccccc21.O=[N+]([O-])c1cc([N+](=O)[O-])c(O)c([N+](=O)[O-])c1 (stereo not given)	inactive: 5.05%
N#Cc1ccc(C(=O)NCC2(N3CCCCC3)CCCCC2)cc1	inactive: -0.335%
CC(C)(C)OC(=O)N1CCC(N(C(=O)c2ccccc2)c2ccc(Cl)cc2)CC1	inactive: -19.3%

SMILES	potentiation
O=C(O)c1cccc(Nc2c([N+](=O)[O-])cc([N+](=O)[O-])cc2[N+](=O)[O-])c1	inactive: -5.95%
CCc1cc(C(=O)NCC2(N3CCCCC3)CCCCC2)sc1C	inactive: 11.1%
O=C(OC1CN2CCC1CC2)C1c2ccccc2C=Cc2ccccc21 (stereo not given)	inactive: 0.177%
CCOC(=O)N1CCC(Nc2ccc(C)cc2)CC1	inactive: -37.6%
N/C(=N\O)c1c(N)no[n+]1[O-]	inactive: -2.42%
COc1ccc(C(=O)NCC2(N3CCOCC3)CCCCC2)cc1OC	active
O=C(NCC1(N2CCOCC2)CCCCC1)c1cc(Br)ccc1Cl	inactive: -22%
CN1CCC(Nc2ccc(Cl)cc2)CC1	inactive: -3.11%
CCCOc1ccc(C)cc1CN(CCCl)CCCl	inactive: 19.4%
COc1cccc(C(=O)N(c2cc(C)cc(C)c2)C2CCN(C(=O)OC(C)(C)C)CC2)c1	inactive: 25.2%
COc1cc(OC)cc(C(=O)NCC2(N3CCOCC3)CCCCC2)c1	inactive: -6.95%
CCC(CO)(C(=O)OC1CN2CCC1CC2)c1ccccc1 (stereo not given)	inactive: -6.22%
O=C(O)C1(Nc2ccccc2)CCN(Cc2ccccc2)CC1	inactive: -1.13%
CC(C)(C)OC(=O)N1CCC(Nc2ccccc2)CC1	inactive: -17%
CCCOc1ccc(C(=O)NCC2(N(C)C)CCCCC2)cc1	inactive: -3.58%
CN1CCC(Nc2ccc(F)c(Cl)c2)CC1	inactive: -16.3%
CCOc1ncccc1C(=O)NCC1(N2CCOCC2)CCCCC1	inactive: -6.93%
CN(C)c1ccc(C(=O)NCC2(N3CCCCC3)CCCCC2)cc1	inactive: -1.38%
O=C(NCC1(N2CCCCC2)CCCCC1)c1ccco1	inactive: 6.84%
CCN1CCC(Nc2cccc(F)c2)CC1	inactive: 9.02%
Fc1ccccc1NC1CCN(Cc2ccccc2)CC1	inactive: 0.931%
COc1cc(OC)cc(C(=O)NCC2(N3CCCCC3)CCCCC2)c1	inactive: 22.7%
